Assay results from publication PMC8477500.

The chains behind the UniProt entries cited, without tags or fusion partners. Where a name states a change or a piece, a line headed by the entry shows the natural chain unless it says otherwise. Residues count along the entry.
UniProt P56485: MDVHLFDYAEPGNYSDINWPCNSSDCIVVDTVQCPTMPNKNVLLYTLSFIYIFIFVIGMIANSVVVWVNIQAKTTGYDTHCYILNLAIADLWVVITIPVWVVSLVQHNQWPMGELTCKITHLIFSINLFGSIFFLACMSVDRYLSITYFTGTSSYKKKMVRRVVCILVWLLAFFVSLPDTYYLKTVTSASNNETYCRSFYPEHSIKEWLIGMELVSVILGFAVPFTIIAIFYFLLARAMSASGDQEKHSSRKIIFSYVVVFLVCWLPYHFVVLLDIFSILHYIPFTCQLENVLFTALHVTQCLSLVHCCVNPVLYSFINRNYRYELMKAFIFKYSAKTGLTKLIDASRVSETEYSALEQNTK
UniProt P48061, 22-89: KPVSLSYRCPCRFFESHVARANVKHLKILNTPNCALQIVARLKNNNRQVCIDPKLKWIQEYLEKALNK

Tests used:
[1] = target: mouse ACKR3 fused at its C-tail to the yellow fluorescent protein Venus (ACKR3-Venus) (mouse) (UniProt P56485)
[2] = target: mouse ACKR3 (atypical chemokine receptor 3), untagged (mouse) (UniProt P56485)
[3] = target: mouse ACKR3 fused at its C-tail to the yellow fluorescent protein Venus (ACKR3-Venus) (mouse) (UniProt P56485); remark: listed apart in the source

A βarrestin2-RlucII recruitment to the plasma membrane (rGFP-CAAX, ebBRET) in HEK-293 cells with ACKR3-Venus, 10 min, increasing concentrations of CXCL12; EC50 [1] of 2.2 nM, a βarrestin2-RlucII recruitment to the plasma membrane (rGFP-CAAX, ebBRET) in HEK-293 cells with untagged ACKR3, 10 min, increasing concentrations of CXCL12; EC50 [2] of 1.9 nM and a βarrestin2-RlucII recruitment to ACKR3-Venus (BRET1) in HEK-293 cells, 10 min, increasing concentrations of CXCL12; LogEC50 (log (unit of concentration not given)) [3] of -9.15 were found for “SDF-1α/CXCL12 (from UniProt P48061-2 22-89) (ligand)” in this work.
